Earlier results on one substance are cited in patent US20220195027A1, “ANTI-ANGIOGENESIS THERAPY FOR THE TREATMENT OF PREVIOUSLY TREATED BREAST CANCER” (Genentech, Inc., priority 2009, published 2022).

Data set [1] has as its system HER2 overexpressing metastatic breast cancer. As to conditions: cited from earlier work.
The test system is the same in data set [2]. As to conditions: 222 women, open-label phase II; cited from earlier work.

Turning to “trastuzumab: recombinant humanized monoclonal antibody directed against HER2”, the “Overall response rate and time to progression, result in words” value in data set [1] (added to chemotherapy vs chemotherapy alone) is recorded as “significantly improved”. Besides, the “overall survival, result in words” value in data set [1] (added to chemotherapy) is given as “prolonged overall survival”. Also, the confirmed complete responses result in data set [2] is “six”.
